Experimental data: patent US8945540B2, “Compositions for enhancing the antibacterial activity of myeloperoxidase and methods of use thereof” (Exoxemis, Inc., priority 2008, dated 2015)

How the values were obtained:
Staphylococcus aureus [1] = assay: Microbicidal activity of the myeloperoxidase system (p-MPO, glucose oxidase, glucose) with amino acids in the presence of blood, CFU plate counts; synergy determination from these CFU; type: cell-based; conditions: Table 7, amino acid analogue 5 mM, MPO 38 U/ml, GO 33.3 U/ml
Procedure: Bacterial suspensions, specifically Staphylococcus aureus in this example, were prepared by the shake flask method to achieve late log to early stationary phase growth. Bacteria were grown 24 hours in trypticase soy broth (TSB) at 35° C. The cultures were centrifuged at 4,000 rpm for 10 minutes and the supernatants removed. The pellet was collected and washed twice with sterile 0.9% normal saline (NS). The washed microorganisms were suspended and diluted with normal saline to a 3 McFarland standard, i.e., approximately 10^9 bacteria colony forming units (CFU) per mL. Actual colony counts are confirmed by serial dilutions (10^−1 to 10^−5 or 10^−6) plated on TSA and incubated overnight at 35° C. To obtain an approximate final working target inoculum of 10^7 CFU/mL, 15 microliters of organisms per mL of final reaction mixture are used.
Glucose oxidase (GO) from Aspergillus Niger was purchased from Biozyme, Inc., UK, Cat #GO3A, 270 U/mg). Porcine Myeloperoxidase (p-MPO) (Exoxemis, Inc., Little Rock, Ark. U.S.A., 375 U/mg). […]
Staphylococcus aureus were used to give a final target concentration of 2-3×10^7 CFU (7.4 log 10) per mL and venous whole blood was used to give a final concentration of 3%. […] Serial dilution plate counts were performed from the contents of each vial in sterile saline and inoculated onto trypticase soy agar (TSA) for quantitative culture. […]

Staphylococcus aureus [2] = assay: Control: microbicidal activity of the amino acid or analogue alone (no glucose, MPO, glucose oxidase) in the presence of blood; type: cell-based; conditions: amino acid analogue alone 5 mM, MPO 0, GO 0
From the text: As a control to determine the microbicidal activity of the amino acids alone, the foregoing procedure was followed without replication, except in the absence of glucose, MPO, and glucose oxidase.

O=C(O)C1CCCNC1 (centres unmarked) [Nipecotic acid]
Average Viability CFU/ml 60 min (Staphylococcus aureus [1]): 0 CFU/ml
Average Viability CFU/ml 60 min (Staphylococcus aureus [2]): 23200000 CFU/ml
